Assay results: US20230303513A1, “OXOPYRROLIDINE UREA FPR2 AGONISTS” (BRISTOL-MYERS SQUIBB COMPANY, priority 2020, published 2023)

The chains behind the UniProt entries cited, without tags or fusion partners.
UniProt P25090, whole entry: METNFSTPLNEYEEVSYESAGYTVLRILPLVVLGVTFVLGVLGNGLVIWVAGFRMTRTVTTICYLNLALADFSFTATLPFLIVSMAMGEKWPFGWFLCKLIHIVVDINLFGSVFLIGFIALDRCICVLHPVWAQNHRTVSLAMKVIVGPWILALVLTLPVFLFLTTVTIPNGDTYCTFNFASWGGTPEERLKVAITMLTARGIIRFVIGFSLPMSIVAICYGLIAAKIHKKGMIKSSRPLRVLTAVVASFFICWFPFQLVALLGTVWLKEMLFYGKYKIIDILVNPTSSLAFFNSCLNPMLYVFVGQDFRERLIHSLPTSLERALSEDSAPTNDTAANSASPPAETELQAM
UniProt P21462, whole entry: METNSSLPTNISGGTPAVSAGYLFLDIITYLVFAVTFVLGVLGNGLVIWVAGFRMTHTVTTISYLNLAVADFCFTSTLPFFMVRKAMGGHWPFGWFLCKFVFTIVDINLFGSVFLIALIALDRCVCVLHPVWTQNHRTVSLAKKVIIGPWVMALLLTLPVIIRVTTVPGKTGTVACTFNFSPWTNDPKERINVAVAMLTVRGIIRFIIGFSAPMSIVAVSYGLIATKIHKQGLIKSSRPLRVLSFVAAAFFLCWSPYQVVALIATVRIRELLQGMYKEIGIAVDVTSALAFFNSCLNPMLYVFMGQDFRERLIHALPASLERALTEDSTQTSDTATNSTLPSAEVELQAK

Columns and labels:
[1] = target: human FPR2 (Homo sapiens (Human), UniProt P25090); assay: FPR2 cyclic adenosine monophosphate (cAMP) assay; conditions: read-out: hFPR2 cAMP2 EC50; CHO cells overexpressing human FPR2; forskolin 5 μM, IBMX 200 μM; inhibition of cAMP production, HTRF
[2] = target: human FPR1 (Homo sapiens (Human), UniProt P21462); assay: FPR1 cyclic adenosine monophosphate (cAMP) assay; conditions: read-out: hFPR1 cAMP EC50; CHO cells overexpressing human FPR1; forskolin 10 μM, IBMX 200 μM; inhibition of cAMP production, HTRF

| SMILES | EC50 [1] [nM] | EC50 [2] [nM] |
| --- | --- | --- |
| COc1cc(F)c([C@@H]2CN(c3cccn(CCO)c3=O)C(=O)[C@H]2NC(=O)NC2CCc3cc(OC)ccc3C2(C)C)c(F)c1 (some centres unmarked) | 4.8 | 21 |
| COCC(CO)n1cccc(N2C[C@@H](c3c(F)cc(OC)cc3F)[C@H](NC(=O)N[C@H]3CC[C@H](C(F)F)CC3)C2=O)c1=O (single isomer, unassigned) [106] | 23 | 1700 |
| COCC(CO)n1cccc(N2C[C@@H](c3c(F)cc(OC)cc3F)[C@H](NC(=O)N[C@H]3CC[C@H](C(F)F)CC3)C2=O)c1=O (single isomer, unassigned) [107] | 28 | 2800 |
| COc1cc(F)c([C@@H]2CN(c3cccn(CCO)c3=O)C(=O)[C@H]2NC(=O)NC2CCc3cc(OC)ccc3C2)c(F)c1 (some centres unmarked) [Example 21] | 2.6 | 10 |
| COc1cc(F)c([C@@H]2CN(c3ncccc3C(F)(F)F)C(=O)[C@H]2NC(=O)NC2CCc3ccccc3C2)c(F)c1 (some centres unmarked) [Example 24] | 0.7 | 0.5 |
| COCCn1cccc(N2C(=O)[C@@H](NC(=O)NC3CCc4cc(Cl)ccc4C3)[C@H](c3c(F)cc(OC)cc3F)[C@@H]2C)c1=O (some centres unmarked) [Example 27] |  | 54 |
